In patent US12678471B2 (priority 2022, dated 2026):

Test system: ACE2-293T cells

Aromoline
Cell viability (%) (10 μM, 24 hours, ACE2-293T cells, vehicle group = 100%, mean ± SD (n = 3)): 97.10 ± 1.84% | Cytotoxicity to ACE2-293T cells (result in words) (dose of 10 μM): caused no harms to the ACE2-293T cells
